# Measured affinities in a library of Ab-95 light chain variants

Reference: Engelhart et al. 2022, doi:10.1038/s41597-022-01779-4. File: FLAb, binding data.

Antigen: PDVDLGDISGINAS, a 14-residue peptide of the SARS-CoV-2 spike HR2 region.

Each scFv is VH, a 15-residue (Gly4Ser)3 linker, VL, as in the parent Ab-95, and differs from it in the CDRs of the light chain only.
VH: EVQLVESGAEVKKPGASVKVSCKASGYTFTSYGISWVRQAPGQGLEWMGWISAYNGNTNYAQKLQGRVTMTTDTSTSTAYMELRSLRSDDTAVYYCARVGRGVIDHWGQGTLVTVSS
VL: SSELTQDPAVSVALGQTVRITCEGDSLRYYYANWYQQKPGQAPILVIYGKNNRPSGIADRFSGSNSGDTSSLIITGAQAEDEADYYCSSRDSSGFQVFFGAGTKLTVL

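In library AAYL52, one, two or three CDR residues were substituted; doubles and triples were drawn at random. Affinity was read by AlphaSeq, a pooled yeast mating assay with surface-displayed partners. Pairs that bind mate more often; barcode pairs of the diploids are counted by sequencing. The ratio of observed to expected reads was calibrated, replicate by replicate, on BCL2-family standards whose Kd was known from biolayer interferometry. The assay was run in three technical replicates.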

Positions count from residue 1 of the parent VL; N51P puts P in place of N.
All variants listed here change N51 of the VL, counted from its first residue.
Scale: log10 of Kd in nM, estimated from mating counts; low values are strong binders.
A mean of the replicates is given; it leaves out those without a signal.
"nd" means that the variant was in the library but no mating with the target was seen in that replicate; the authors take this as a sign of poor binding, and no number exists.
For reference, the parent read 2.31 as the reference entry and 2.25 as a member of this library.
As a blank, each scFv also met three strains without target: over library AAYL52, 28% of these pairings were detected, typically at 3.91 and seldom below 2.90.

changes	log10 Kd, replicates	log10 Kd (nM), mean
N51P+P54S+F98H	5.24 / nd / 4.35	4.80
N51G+S55Y+Q96W	2.28 / 2.06 / 1.98	2.10
L27H+N51A+S93L	nd / 4.66 / 3.81	4.24
A32C+N51C+S88Q	4.41 / nd / nd	4.41
Y30V+A32R+N51E	nd / nd / nd	nd
G24K+R28V+N51F	4.12 / 3.01 / 3.79	3.64
D25N+N51T+S88L	4.04 / nd / nd	4.04
Y31L+G49T+N51W	4.14 / 5.15 / nd	4.65
G24L+D25H+N51M	nd / 4.27 / nd	4.27
Y30H+K50I+N51L	2.74 / 2.73 / 2.74	2.74
N51G	2.27 / 1.71 / 1.79	1.93
N51M+S89E+V97K	4.40 / nd / nd	4.40
L27G+N51M+G94L	nd / 3.71 / 4.25	3.98
N51H+N52M+G94H	3.09 / 3.49 / 3.15	3.25
N51Q+S55E+G94D	3.52 / 4.36 / 2.39	3.42
S26Q+N51T+S92A	4.67 / 4.08 / nd	4.38
S26K+N51E+S89H	4.96 / nd / nd	4.96
N51M+S93V	nd / nd / 4.06	4.06
D25G+N51D+F98V	3.04 / 2.58 / 2.35	2.66
L27S+N51M+F98V	4.16 / 6.04 / nd	5.10
N33R+N51Y+V97P	nd / nd / 3.51	3.51
G24K+N51I+S88Y	nd / nd / nd	nd
Y29I+N51Q+F95G	4.85 / nd / nd	4.85
N51K	3.15 / 3.60 / nd	3.37
G24K+A32R+N51Y	3.99 / nd / 3.51	3.75
Y31N+N51G+R53S	1.94 / 2.13 / 1.56	1.87
A32W+N51C+P54E	nd / 5.73 / 4.42	5.08
S26Y+N51V+P54W	3.18 / nd / nd	3.18
Y29T+A32Y+N51M	3.93 / 3.91 / 4.30	4.05
N51D+Q96D	2.69 / 2.60 / 2.32	2.54
G24M+Y29L+N51S	nd / 2.72 / nd	2.72
D25T+N51R+G94C	nd / 4.37 / nd	4.37
S26M+N51F+N52V	nd / nd / 3.17	3.17
N33I+G49D+N51E	2.73 / nd / nd	2.73
E23Q+N51R+Q96S	3.19 / 2.83 / 2.67	2.90
K50P+N51P+Q96D	3.95 / nd / nd	3.95
Y31G+N51G+S89I	nd / nd / nd	nd
G24L+N51H+S93K	nd / 4.36 / nd	4.36
N51D+S89E	2.76 / nd / 2.94	2.85
Y29M+N51I+S89V	3.47 / 4.06 / nd	3.77

Top 3 of the variants detected in all replicates, tightest first:

| changes | log10 Kd, replicates | log10 Kd (nM), mean |
|---|---|---|
| Y31N+N51G+R53S | 1.94 / 2.13 / 1.56 | 1.87 |
| N51G | 2.27 / 1.71 / 1.79 | 1.93 |
| N51G+S55Y+Q96W | 2.28 / 2.06 / 1.98 | 2.10 |